Literature values as cited in patent publication US10226476B2, “Method of attenuating reactions to skin irritants” (Dana-Farber Cancer Institute, Inc., priority 2001, dated 2019).

Test system: CD1d
Conditions: comparison with α-ManCer, from reference (22); cited from earlier work

Substance: 1,2-Dipalmitoyl-sn-Glycero-3-Phosphoethanolamine-N-[Poly(ethylene glycol) 2000] [DPPE-PEG]
- solubility and competition of α-GalCer presentation relative to α-ManCer: significantly more soluble and effective competitor of α-GalCer presentation than α-ManCer
